Patent US20070105789A1, “Combinatorial chemotherapy treatment using Na+/K+ ATPase inhibitors” (priority 2004, published 2007)

Columns and labels:
[1] = system: HIF-1α; experiment: HIF-1α Western blot in Hep3B cells; format: cell-based, human
[2] = Melville KI et al. 1966; cited from earlier work
[3] = biological target: T1, Na+/K+-ATPase (Canis lupus familiaris, UniProt P50997); experiment: Na+/K+-ATPase inhibition; format: biochemical, dog
T1 construct: enzyme preparation from dog kidney (Sigma); purchased Sigma; host or cells: dog kidney tissue
Method: Anti-prolerafitive IC50 values were determined by MTS assay using an A549 cell line. Na^+/K^+-ATPase inhibition IC50 values were obtained using enzyme preparation from dog kidney (Sigma).

[4] = single oral dose of 3.5 mg; cited from earlier work

Q: Which results are given for `C[C@@H]1OC(OC2C=C3CCC4C(CC[C@]5(C)[C@@H](c6ccc(=O)oc6)CC[C@]45O)[C@@]3(C)CC2)[C@H](O)[C@H](O)[C@H]1O` (stereo partly shown) [BNC-4, proscillaridin]?
A: potency relative to BNC-1 in inhibiting HIF-1α expression [1]: about 10 times; toxicity relative to Ouabain [2]: about half; potency relative to BNC-151 in Na+/K+-ATPase inhibition [3]: about 10 times; time to optimal therapeutic plasma levels [4]: 30 min
